{"source": "paper PMC7000199", "about": "“Indirubin derivatives are potent and selective anti-Trypanosoma cruzi agents” (Virulence, 2018)", "tested_on": "murine macrophages J774.1", "assay": "Cytotoxicity to mammalian cells (Alamar Blue)", "format": "cell-based, mouse", "protocol": "Mouse macrophages (J774.1 cell line) were seeded into 96-well plates at a cell number 1 × 10^4 cells/well in DMEM medium supplemented with 10 % of FBS and incubated for 24 h at 37°C and 5% CO2. Samples were then added at eight concentrations (ranging from 0.078 to 10 µM) in triplicate, and incubated for 72 h, followed by the addition of 20 µL/well of Alamar Blue (Invitrogen; Catalog number: DAL1025). Colorimetric readings were performed 24 h later at 570 and 600 nm. CC50 values were calculated using data-points gathered from three independent experiments. Benznidazole was tested in concentrations ranging from 0.78 to 100 µM.\nTo determine the cytotoxicity concentration 50% of J774.1 (CC50) and the effective concentration 50% (EC50) of the trypomastigotes and amastigotes forms of T. cruzi, we used nonlinear regression. The selectivity index (SI) was defined as the ratio of CC50 by EC50 (trypomastigotes). The one-way ANOVA followed by Bonferroni’s multiple comparison test was used to determine the statistical significance of the group comparisons in the in vitro infection and in vivo studies. Results were considered statistically significant when P < 0.05. All analyzes were performed using Graph Pad Prism version 5.01", "data": [{"substance": "3ʹpiperazine-6-BIO [Compound 11]", "values": [{"measurement": "cytotoxicity against murine macrophages J774.1 (in words)", "value": "lower cytotoxicity"}, {"measurement": "CC50", "setting": "J774.1 cell viability, 72 h post-treatment", "value": 6.25, "unit": "µM"}]}]}
